Experimental data from US20090035322A1 (Regeneron, published 2009).
Read-outs that look alike come from different tables or passages of the source.

Columns and labels:
human CD20 [1] = molecular target: T1, human CD20 (human, UniProt P11836 1-297); test: cell-based or functional assay
T1 sequence: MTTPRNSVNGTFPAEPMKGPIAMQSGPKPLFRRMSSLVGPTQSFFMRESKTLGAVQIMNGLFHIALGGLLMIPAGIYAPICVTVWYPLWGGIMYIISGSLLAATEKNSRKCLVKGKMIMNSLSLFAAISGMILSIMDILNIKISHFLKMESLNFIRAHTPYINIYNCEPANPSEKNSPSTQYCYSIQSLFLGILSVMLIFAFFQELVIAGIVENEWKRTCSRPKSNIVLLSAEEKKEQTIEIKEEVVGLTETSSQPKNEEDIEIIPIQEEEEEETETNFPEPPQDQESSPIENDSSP

human CD20 [2] = molecular target: T1, human CD20; test: cell-based or functional assay; remark: listed apart in the source
human CD20 [3] = molecular target: T1, human CD20; test: cell-based or functional assay; remark: listed apart in the source
human CD20 [4] = molecular target: T1, human CD20; test: cell-based or functional assay; remark: listed apart in the source
human CD20 [5] = molecular target: T1, human CD20; test: flow cytometry, hCD20-transfected MG87 cells
Procedure: Briefly, parental MG87 and human CD20-transfected MG87 cells were incubated for 30 min at 4° C. with each of the 15 human antibodies and the two control antibodies, followed by incubation with PE-conjugated anti-human IgG antibody. Binding was assessed by flow cytometry. Fluorescence intensities were compared with binding to the parental cell line and control isotype-matched sample.

[6] = molecular target: T2, mutant human CD20 #5 (P172S) (human, UniProt P11836 1-297); test: FACS, mutant-hCD20 MG87 cells; 100%=best antibody
T2 construct: Stably expressed on MG87 cells
T2 sequence: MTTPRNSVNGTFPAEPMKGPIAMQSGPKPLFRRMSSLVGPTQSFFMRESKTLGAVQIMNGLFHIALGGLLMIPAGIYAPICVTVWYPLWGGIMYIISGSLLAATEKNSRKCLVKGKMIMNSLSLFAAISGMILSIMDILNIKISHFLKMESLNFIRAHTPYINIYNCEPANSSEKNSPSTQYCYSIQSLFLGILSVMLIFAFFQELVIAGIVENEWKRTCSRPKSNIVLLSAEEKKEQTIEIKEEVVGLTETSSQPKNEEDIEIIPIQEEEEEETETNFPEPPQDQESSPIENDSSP
Procedure: Briefly, approximately 1×10⁶ cells from each stably transfected cell line expressing a mutant human CD20 were collected and incubated with each anti-human antibody, at 10 μg/ml, on ice for 1 hr, followed by incubation with APC-conjugated goat anti-human IgG (Jackson Immunolabs), at 10 μg/ml, on ice for 45 min. For each antibody, binding to each mutant human CD20 was assessed by flow cytometry.

B1: 2F2 (antibody, V domains shown)
VH: EVQLVESGGGLVQPGRSLRLSCAASGFTFNDYAMHWVRQAPGKGLEWVSTISWNSGSIGYADSVKGRFTISRDNAKKSLYLQMNSLRAEDTALYYCAKDIQYGNYYYGMDVWGQGTTVTVSS
VL: EIVLTQSPATLSLSPGERATLSCRASQSVSSYLAWYQQKPGQAPRLLIYDASNRATGIPARFSGSGSGTDFTLTISSLEPEDFAVYYCQQRSNWPITFGQGTRLEIK
CDC, Daudi EC50 (human CD20 [1]): 0.28 nM
CDC, RL EC50 (human CD20 [1]): 0.77 nM
% Cytotoxicity (CDC, Daudi), 0 hour (human CD20 [2]): 99.6%
% Cytotoxicity (CDC, Daudi), 1 hour (human CD20 [2]): 99.1%
% Cytotoxicity (CDC, Daudi), 6 hour (human CD20 [2]): 98.5%
% Cytotoxicity (CDC, Daudi), 0 hour (human CD20 [3]): 98.3%
% Cytotoxicity (CDC, Daudi), 1 hour (human CD20 [3]): 98.6%
% Cytotoxicity (CDC, Daudi), 6 hour (human CD20 [3]): 97.7%
% Cytotoxicity (CDC, Daudi), 0 hour (human CD20 [4]): 99.1%
% Cytotoxicity (CDC, Daudi), 1 hour (human CD20 [4]): 99.2%
% Cytotoxicity (CDC, Daudi), 6 hour (human CD20 [4]): 98.7%
Total Mean Fluorescent Intensity (human CD20 [5]): 3320
Percent of Binding to Mutant Human CD20 [6]: 84%
